Measured values taken from PubChem BioAssay AID456 (Sanford-Burnham Center for Chemical Genomics, 2006).
The entries are a selection whose mix differs from that of the whole data set. Entries with a potency or affinity are not part of this list. Active and inactive are the calls of the source.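 The calls were made as follows: active = top tenth filtered wells with inhibition above zero that passed visual or statistical confirmation; inactive = the rest, including hits rejected on review.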

Assay: suppression of endothelial VCAM-1 upregulation – imaging, high-content imaging, pooled HUVEC, TNFa stimulus (AID 456)
Conditions: HUVEC TNFa-induced VCAM-1 surface expression, immunofluorescence imaging

| SMILES | outcome |
| --- | --- |
| Cc1ccc(C)c(NP(C)(=O)Oc2ccccc2)c1 (stereo not given) | inactive |
| CP(=S)(Nn1cnnc1)Oc1ccccc1 (stereo not given) | inactive |
| CP(=O)(Nc1ccccn1)Oc1ccccc1 (stereo not given) | inactive |
| CN(C)CCOC(=O)C(O)(c1ccccc1)C1CCCCC1 (stereo not given) | inactive |
| CP(=O)(Nc1ccc2c(c1)OCCO2)Oc1ccccc1 (stereo not given) | inactive |
